Results published in ChEMBL document CHEMBL1156754, “Human P2Y(14) receptor agonists: truncation of the hexose moiety of uridine-5'-diphosphoglucose and its replacement with alkyl and aryl groups” (J Med Chem, 2010).

By UniProt entry, the sequences of proteins in these tests, tags left out. Where a name states a change or a piece, a line headed by the entry shows the natural chain unless it says otherwise.
UniProt Q15077, whole entry, looked up: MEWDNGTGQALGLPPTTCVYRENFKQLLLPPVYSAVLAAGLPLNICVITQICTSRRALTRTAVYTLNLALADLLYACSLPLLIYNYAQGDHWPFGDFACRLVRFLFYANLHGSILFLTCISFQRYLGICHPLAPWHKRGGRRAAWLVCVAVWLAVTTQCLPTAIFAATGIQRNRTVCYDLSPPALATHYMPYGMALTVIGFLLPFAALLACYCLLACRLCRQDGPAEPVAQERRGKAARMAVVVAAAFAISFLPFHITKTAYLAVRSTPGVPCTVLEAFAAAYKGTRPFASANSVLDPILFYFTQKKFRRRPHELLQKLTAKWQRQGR
UniProt Q15391, whole entry, looked up: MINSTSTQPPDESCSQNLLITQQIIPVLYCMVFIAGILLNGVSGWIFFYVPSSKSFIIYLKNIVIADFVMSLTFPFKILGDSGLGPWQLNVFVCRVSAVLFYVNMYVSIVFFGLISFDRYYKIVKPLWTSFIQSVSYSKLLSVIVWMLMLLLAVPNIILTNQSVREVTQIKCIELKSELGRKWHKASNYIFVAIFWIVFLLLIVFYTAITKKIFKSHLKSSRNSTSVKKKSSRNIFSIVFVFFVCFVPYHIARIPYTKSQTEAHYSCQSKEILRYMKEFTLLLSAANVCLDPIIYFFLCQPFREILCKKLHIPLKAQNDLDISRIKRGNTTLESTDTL

Columns and labels:
[1] = target: P2Y purinoceptor 6 (Homo sapiens, UniProt Q15077); settings: 1321-n1
[2] = target: P2Y purinoceptor 14 (Homo sapiens, UniProt Q15391); settings: hek293

CP(=O)(O)OP(=O)(O)OC[C@H]1O[C@@H](n2ccc(=O)[nH]c2=O)[C@H](O)[C@@H]1O
EC50 [1]: 8 µM | EC50 [2]: 4.58 µM
